Assay results: ChEMBL document CHEMBL4118244, “Design, synthesis and biological evaluation of benzofuran appended benzothiazepine derivatives as inhibitors of butyrylcholinesterase and antimicrobial agents” (Bioorg Med Chem, 2018)

Assays:
Format in all cases: functional
[1] = tested on: Proteus vulgaris; assay: Antibacterial activity against Proteus vulgaris PTCC 1182
[2] = tested on: Staphylococcus aureus; assay: Antibacterial activity against Staphylococcus aureus ATCC 29737
[3] = tested on: Staphylococcus epidermidis; assay: Antibacterial activity against Staphylococcus epidermidis ATCC 12228
[4] = tested on: Salmonella paratyphi; assay: Antibacterial activity against Salmonella paratyphi A serotype ATCC 5702; conditions: Salmonella enterica subsp. enterica serovar Paratyphi A
[5] = tested on: Escherichia coli; assay: Antibacterial activity against Escherichia coli ATCC 10536
[6] = tested on: Bacillus spizizenii; assay: Antibacterial activity against Bacillus subtilis ATCC 6633

Measured: MIC

GENTAMICIN
0.5 mg/L: all assays above
